Data as given in patent US20230337678A1, “NITRIC OXIDE-RELEASING ANTIBACTERIAL COMPOUNDS, FORMULATIONS, AND METHODS PERTAINING THERETO” (KNOW BIO, LLC, priority 2020, published 2023).

Legend:
[1] = test system: SCID mice; test: Maximum tolerated dose study in mice; conditions: intratracheal, once daily for 3 consecutive days

For [O-]/[N+](=N\O)C(/[N+]([O-])=N/O)/[N+]([O-])=N/O, the T½ (NO release half-life, Table 14) was 3 h, the “NO Load” value (Table 14, unit not given) was 6.7 and the NO-loading (compositions of MTDD (NCT-19-096) and β-cyclodextrin) was 6.7 µmol/mg. The “clinical condition of mice” value ([1]; 1-100 mg/kg, duration of study) was “bright, alert, and responsive” and the adverse effects ([1]; up to maximum dose group 6 (100 mg/Kg)) was “No adverse effects were observed”.
